Measurements taken from ChEMBL document CHEMBL4699451, “Discovery of BIIB068: A Selective, Potent, Reversible Bruton's Tyrosine Kinase Inhibitor as an Orally Efficacious Agent for Autoimmune Diseases” (J Med Chem, 2020).

By UniProt entry, the sequences of proteins in these tests, tags left out. Where a name states a change or a piece, a line headed by the entry shows the natural chain unless it says otherwise.
UniProt Q2M2I8: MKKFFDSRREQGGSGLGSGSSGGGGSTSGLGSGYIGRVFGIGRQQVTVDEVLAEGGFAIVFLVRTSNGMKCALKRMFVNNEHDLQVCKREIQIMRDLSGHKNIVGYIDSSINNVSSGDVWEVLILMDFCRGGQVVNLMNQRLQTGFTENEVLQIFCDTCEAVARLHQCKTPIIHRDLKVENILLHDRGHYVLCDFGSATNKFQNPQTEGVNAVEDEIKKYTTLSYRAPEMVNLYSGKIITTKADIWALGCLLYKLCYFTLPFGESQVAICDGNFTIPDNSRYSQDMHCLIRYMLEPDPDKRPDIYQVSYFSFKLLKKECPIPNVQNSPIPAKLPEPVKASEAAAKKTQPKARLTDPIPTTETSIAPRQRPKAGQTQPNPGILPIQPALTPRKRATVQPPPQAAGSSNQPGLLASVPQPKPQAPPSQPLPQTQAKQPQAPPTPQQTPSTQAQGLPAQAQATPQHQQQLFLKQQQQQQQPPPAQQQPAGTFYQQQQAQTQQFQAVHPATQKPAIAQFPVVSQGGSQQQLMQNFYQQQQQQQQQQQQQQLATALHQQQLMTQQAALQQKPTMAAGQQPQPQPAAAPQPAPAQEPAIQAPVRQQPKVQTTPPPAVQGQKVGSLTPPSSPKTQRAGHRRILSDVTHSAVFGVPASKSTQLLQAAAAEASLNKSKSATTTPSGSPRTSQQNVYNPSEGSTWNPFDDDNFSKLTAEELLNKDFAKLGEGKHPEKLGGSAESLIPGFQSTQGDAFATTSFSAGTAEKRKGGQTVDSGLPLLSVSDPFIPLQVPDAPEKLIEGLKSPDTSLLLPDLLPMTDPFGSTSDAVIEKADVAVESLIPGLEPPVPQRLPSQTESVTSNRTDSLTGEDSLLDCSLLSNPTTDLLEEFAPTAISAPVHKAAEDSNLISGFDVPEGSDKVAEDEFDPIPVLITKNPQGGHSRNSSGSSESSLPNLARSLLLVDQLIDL
UniProt Q9BVS4: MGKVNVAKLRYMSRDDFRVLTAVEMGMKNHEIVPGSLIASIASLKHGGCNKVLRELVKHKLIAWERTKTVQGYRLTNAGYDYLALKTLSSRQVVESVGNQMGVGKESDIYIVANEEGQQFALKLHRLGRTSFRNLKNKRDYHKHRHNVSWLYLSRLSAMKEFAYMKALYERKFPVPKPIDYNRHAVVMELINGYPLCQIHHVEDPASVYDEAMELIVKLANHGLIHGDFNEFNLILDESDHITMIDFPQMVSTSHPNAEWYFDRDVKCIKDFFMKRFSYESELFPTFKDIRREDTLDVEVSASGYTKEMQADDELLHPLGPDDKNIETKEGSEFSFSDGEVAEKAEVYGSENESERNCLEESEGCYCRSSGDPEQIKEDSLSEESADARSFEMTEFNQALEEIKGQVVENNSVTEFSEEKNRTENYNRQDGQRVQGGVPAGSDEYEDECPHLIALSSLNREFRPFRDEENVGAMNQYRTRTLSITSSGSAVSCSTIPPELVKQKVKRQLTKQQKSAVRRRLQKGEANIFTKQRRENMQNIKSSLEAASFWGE
UniProt O60674: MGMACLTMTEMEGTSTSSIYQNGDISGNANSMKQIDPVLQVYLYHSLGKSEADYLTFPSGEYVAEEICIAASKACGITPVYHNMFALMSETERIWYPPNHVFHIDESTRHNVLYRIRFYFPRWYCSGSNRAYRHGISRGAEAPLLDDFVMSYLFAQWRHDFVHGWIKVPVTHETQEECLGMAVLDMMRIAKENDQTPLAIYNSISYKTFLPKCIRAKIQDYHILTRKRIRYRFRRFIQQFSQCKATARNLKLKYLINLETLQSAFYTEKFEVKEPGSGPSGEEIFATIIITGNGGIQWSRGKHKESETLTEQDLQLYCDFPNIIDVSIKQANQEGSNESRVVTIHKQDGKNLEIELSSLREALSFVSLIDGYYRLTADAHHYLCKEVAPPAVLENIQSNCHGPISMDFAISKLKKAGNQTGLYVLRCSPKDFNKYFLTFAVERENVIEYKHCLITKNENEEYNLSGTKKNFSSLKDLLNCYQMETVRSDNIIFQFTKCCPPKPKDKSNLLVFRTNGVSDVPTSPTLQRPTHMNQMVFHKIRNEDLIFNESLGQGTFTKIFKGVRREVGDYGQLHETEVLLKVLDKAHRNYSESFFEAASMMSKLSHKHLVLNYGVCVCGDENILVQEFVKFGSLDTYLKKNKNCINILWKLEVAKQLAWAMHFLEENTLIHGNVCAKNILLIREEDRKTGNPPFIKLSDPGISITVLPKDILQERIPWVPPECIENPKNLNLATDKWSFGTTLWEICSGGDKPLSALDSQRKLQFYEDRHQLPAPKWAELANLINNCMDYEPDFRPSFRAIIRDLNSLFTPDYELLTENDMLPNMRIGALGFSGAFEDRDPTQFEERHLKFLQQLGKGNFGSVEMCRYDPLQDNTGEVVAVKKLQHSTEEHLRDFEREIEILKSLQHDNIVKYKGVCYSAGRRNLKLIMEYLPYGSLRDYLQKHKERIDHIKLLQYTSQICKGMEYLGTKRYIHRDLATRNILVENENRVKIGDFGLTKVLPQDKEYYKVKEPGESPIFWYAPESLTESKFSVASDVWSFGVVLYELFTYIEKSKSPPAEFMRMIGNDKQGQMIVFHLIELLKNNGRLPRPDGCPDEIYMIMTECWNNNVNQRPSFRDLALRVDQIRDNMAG
UniProt Q9NSY1, whole entry, looked up: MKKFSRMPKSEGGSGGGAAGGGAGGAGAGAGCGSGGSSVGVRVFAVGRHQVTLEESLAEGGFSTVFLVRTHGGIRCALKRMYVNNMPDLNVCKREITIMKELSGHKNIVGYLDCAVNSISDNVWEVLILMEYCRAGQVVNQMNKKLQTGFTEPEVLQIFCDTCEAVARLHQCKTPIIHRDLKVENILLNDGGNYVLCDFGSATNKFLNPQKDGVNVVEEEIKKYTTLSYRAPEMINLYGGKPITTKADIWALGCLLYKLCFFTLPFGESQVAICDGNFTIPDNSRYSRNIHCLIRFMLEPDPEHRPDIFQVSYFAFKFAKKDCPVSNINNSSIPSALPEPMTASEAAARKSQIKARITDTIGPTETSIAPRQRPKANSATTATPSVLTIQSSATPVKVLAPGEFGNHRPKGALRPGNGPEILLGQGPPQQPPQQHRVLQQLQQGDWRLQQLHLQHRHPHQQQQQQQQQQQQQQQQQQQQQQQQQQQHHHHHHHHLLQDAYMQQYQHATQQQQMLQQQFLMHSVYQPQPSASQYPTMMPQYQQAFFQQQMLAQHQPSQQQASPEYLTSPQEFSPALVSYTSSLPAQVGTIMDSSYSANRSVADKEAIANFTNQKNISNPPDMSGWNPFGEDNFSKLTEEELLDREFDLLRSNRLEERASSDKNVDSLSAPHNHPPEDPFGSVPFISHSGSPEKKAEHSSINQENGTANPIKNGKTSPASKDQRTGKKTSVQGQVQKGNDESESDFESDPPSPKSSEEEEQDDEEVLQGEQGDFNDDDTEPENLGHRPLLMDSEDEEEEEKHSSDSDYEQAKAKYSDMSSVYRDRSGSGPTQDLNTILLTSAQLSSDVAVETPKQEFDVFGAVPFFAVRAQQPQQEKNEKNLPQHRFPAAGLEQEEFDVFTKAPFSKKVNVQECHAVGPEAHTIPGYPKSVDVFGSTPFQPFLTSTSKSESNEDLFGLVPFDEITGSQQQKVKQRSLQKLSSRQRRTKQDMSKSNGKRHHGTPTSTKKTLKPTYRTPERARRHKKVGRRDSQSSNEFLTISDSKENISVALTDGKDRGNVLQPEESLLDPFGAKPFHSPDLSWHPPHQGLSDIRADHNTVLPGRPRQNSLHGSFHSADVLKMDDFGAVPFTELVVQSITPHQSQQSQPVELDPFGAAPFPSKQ
UniProt Q06187: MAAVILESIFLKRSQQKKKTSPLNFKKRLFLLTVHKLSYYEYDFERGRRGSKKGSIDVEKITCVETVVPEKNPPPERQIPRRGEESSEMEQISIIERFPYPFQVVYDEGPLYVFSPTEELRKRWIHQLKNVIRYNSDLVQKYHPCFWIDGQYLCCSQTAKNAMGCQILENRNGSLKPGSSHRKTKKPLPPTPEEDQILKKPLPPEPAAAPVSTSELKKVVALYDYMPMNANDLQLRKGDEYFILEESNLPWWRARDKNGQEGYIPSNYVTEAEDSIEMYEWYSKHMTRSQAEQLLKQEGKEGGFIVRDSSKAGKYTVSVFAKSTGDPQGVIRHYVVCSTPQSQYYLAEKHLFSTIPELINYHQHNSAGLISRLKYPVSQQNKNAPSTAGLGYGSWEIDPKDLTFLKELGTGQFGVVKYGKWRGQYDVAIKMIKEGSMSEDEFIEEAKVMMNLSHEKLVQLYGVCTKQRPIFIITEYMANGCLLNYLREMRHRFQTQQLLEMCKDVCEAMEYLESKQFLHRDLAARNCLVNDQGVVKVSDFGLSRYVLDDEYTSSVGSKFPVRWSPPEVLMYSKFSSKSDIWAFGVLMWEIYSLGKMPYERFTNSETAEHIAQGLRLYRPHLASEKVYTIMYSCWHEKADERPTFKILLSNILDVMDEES
UniProt Q99755: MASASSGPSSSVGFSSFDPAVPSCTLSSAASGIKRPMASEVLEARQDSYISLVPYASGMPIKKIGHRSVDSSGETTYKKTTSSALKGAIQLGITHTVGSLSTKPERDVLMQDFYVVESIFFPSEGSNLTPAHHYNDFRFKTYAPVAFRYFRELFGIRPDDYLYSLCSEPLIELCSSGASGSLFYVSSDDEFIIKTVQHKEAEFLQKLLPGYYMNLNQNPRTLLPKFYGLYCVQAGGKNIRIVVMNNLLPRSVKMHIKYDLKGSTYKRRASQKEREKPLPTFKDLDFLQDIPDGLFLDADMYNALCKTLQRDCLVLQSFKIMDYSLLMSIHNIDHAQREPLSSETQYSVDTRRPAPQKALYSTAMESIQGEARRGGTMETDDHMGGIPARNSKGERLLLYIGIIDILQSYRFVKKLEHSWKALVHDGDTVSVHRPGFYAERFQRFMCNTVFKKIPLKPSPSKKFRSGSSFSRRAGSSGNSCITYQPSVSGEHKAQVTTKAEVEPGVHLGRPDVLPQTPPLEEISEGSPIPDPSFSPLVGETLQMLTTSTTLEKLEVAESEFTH

What was measured:
[1] = biological target: AP2-associated protein kinase 1 (Homo sapiens, UniProt Q2M2I8); test: Binding affinity to human wild-type AAK1 (G25 to L333 residues) expressed in bacterial expression system at 1 uM by Kinomescan method relative to control
[2] = biological target: Serine/threonine-protein kinase RIO2 (Homo sapiens, UniProt Q9BVS4); test: Binding affinity to wild-type human partial length RIOK2 (M1 to D313 residues) expressed in mammalian expression system at 1 uM by Kinomescan method
[3] = biological target: Tyrosine-protein kinase JAK2 (Homo sapiens, UniProt O60674); test: Binding affinity to wild-type human partial length JAK2 JH1 catalytic domain (A829 to G1132 residues) expressed in mammalian expression system at 1 uM by Kinomescan method
[4] = biological target: T1, Mitogen-activated protein kinase kinase kinase 19 (Homo sapiens) (UniProt Q56UN5); test: Binding affinity to wild-type human partial length YSK4 (T1019 to H1328 residues) expressed in mammalian expression system at 1 uM by Kinomescan method relative to control
T1 sequence (whole entry): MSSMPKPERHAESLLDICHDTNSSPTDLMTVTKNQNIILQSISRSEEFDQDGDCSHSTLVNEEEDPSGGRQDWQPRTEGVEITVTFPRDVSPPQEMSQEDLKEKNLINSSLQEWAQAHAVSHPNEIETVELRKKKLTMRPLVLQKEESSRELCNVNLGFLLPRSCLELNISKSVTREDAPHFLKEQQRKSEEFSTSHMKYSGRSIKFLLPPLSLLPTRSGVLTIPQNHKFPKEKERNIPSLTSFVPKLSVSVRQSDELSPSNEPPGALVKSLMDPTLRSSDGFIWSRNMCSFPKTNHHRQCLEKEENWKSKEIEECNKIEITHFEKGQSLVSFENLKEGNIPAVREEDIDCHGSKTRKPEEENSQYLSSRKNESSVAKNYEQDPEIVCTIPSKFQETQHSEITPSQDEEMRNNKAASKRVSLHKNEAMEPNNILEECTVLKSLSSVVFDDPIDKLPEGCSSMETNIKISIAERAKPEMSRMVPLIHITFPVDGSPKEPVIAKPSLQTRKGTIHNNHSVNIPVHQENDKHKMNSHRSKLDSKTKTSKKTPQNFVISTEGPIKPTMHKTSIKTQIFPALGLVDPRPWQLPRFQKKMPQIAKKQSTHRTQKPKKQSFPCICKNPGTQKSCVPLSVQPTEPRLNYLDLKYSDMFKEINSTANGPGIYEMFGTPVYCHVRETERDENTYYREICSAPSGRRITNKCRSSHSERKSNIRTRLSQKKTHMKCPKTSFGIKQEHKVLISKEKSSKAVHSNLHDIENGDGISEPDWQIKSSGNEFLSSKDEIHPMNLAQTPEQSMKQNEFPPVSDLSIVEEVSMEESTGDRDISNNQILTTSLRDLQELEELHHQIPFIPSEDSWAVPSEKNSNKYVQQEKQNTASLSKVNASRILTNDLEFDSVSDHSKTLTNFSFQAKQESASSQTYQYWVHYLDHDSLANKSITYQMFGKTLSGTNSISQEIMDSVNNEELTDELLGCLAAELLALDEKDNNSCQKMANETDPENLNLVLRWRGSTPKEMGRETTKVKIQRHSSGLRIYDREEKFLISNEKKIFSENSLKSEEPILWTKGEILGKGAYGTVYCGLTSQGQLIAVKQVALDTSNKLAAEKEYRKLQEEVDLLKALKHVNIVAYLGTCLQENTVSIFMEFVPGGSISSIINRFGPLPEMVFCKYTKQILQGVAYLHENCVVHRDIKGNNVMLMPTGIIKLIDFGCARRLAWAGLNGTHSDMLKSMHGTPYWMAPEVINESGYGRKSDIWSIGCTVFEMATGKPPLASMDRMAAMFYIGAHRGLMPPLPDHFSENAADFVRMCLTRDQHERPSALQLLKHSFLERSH

[5] = biological target: BMP-2-inducible protein kinase (Homo sapiens, UniProt Q9NSY1); test: Binding affinity to human wild-type BMP2K (S34 to N329 residues) expressed in bacterial expression system at 1 uM by Kinomescan method relative to control
[6] = biological target: Tyrosine-protein kinase BTK (Homo sapiens, UniProt Q06187); test: Binding affinity to wild-type human full length BTK (M1 to S659 residues) expressed in mammalian expression system at 1 uM by Kinomescan method relative to control
[7] = biological target: Phosphatidylinositol 4-phosphate 5-kinase type-1 alpha (Homo sapiens, UniProt Q99755); test: Binding affinity to wild-type human full length PIP5K1A (M1 to H562 residues) expressed in bacterial expression system at 1 uM by Kinomescan method relative to control
[8] = biological target: T2, Serine/threonine-protein kinase RIO1 (Homo sapiens) (UniProt Q9BRS2); test: Binding affinity to wild-type human full length RIOK1 (M1 to K568 residues) expressed in bacterial expression system at 1 uM by Kinomescan method relative to control
T2 sequence (whole entry): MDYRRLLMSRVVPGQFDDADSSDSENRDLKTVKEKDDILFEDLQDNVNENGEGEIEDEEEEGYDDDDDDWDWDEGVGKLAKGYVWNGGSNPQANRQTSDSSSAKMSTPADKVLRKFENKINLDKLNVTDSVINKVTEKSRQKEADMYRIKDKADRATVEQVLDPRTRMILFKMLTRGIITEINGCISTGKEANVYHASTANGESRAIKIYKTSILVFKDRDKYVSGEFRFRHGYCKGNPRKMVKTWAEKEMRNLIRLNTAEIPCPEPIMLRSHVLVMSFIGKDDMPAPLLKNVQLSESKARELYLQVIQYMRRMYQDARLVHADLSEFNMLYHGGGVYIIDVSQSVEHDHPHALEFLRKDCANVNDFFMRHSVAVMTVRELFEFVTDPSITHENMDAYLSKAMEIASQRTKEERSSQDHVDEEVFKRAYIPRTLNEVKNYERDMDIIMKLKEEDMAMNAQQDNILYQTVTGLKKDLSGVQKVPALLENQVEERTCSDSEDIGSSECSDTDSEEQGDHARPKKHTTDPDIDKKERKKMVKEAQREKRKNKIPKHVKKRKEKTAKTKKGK

[9] = biological target: T3, Cyclin-dependent kinase-like 2 (Homo sapiens) (UniProt Q92772); test: Binding affinity to wild-type human partial length CDKL2 (M1 to D327 residues) expressed in bacterial expression system at 1 uM by Kinomescan method relative to control
T3 sequence (whole entry): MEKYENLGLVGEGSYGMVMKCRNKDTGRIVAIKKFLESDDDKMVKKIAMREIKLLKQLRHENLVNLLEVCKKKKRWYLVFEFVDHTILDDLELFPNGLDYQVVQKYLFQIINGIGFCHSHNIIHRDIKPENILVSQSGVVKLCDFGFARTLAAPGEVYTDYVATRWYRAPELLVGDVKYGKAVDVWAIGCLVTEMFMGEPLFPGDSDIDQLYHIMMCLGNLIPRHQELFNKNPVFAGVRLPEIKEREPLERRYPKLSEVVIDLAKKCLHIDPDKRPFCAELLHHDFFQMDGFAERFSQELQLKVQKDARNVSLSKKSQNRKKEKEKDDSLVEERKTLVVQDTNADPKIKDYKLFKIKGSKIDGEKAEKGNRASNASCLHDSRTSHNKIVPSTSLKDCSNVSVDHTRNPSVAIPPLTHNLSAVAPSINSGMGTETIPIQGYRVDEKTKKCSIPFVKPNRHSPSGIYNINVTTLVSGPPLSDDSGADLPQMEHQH

Measured: Activity

Cc1cc(-c2ccnc(Nc3cnn(C)c3)n2)ccc1CNC(=O)N1CC(OC(C)C)C1
> 70%: all assays above
